# Measured values published in publication PMC4947123.
# Key:
# [1] = target: Recombinant FUS (Origene) (UniProt P35637); assay: co-IP; recombinant FUS and FMRP mixed in 10 % glycerol, 0.5 % NP40, 100 mM glycine, 25 mM Tris-HCl pH 7.4, 1 h with protein A agarose beads pre-incubated with rabbit anti-FUS antibody; immunoblot; in Fig. 6g total RNA of HEK293 cells added at 0.1 to 62.5 ng/μl, bands quantified
# [2] = target: endogenous Fus (mouse (endogenous in N2A, NSC-34, primary mouse cortical neurons)) (UniProt P56959); assay: co-IP; total cell lysates treated with RNAse A for 30 min at 4 °C or not, IP with anti-Fus antibodies or IgG, immunoblot, bands quantified; cell line not told for this panel
Substance,percent of FUS-FMRP binding at 0 ng/μl RNA (with 0.1 ng/μl RNA) [1],percent of FUS-FMRP binding at 0 ng/μl RNA (with 0.5 ng/μl RNA) [1],percent of FUS-FMRP binding at 0 ng/μl RNA (with 2.5 ng/μl RNA) [1],percent of FUS-FMRP binding at 0 ng/μl RNA (with 12.5 ng/μl RNA) [1],percent of FUS-FMRP binding at 0 ng/μl RNA (with 62.5 ng/μl RNA) [1],percent of RNase negative condition (after RNase treatment of the lysate) [2]
Recombinant FMRP (Abnova) (from UniProt Q06787 1-632) (natural protein; other documents disagree on this pair),70.4%,56.5%,23.3%,11.6%,4.6%,–
"fragile X mental retardation protein (FMRP), endogenous (from UniProt P35922 1-614) (natural protein)",–,–,–,–,–,441%
